Assay results from patent US20120077957A1, “Lactam-Bridged Melanocortin Receptor-Specific Peptides” (PALATIN TECHNOLOGIES, INC., priority 2009, published 2012).
Read-outs that look alike come from different tables or passages of the source.

Protein sequences, listed by entry. Tags and fused reporters are not part of them.
UniProt P32245, whole entry: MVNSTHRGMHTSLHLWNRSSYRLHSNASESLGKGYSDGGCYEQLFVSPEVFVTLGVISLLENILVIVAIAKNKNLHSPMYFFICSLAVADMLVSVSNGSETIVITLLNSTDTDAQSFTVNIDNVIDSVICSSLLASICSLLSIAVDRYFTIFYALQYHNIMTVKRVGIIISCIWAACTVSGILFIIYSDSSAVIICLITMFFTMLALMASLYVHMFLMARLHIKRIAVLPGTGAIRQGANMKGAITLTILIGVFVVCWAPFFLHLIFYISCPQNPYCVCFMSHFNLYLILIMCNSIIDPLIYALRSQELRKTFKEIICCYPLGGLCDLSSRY

Key:
human MC4-R [1] = biological target: T1, human MC4-R (Homo sapiens, UniProt P32245); assay: Competitive inhibition binding assay with [I125]-NDP-α-MSH or Eu-NDP-α-MSH, membranes of HEK-293 cells expressing recombinant hMC4-R
T1 construct: expressed in transfected cells; host or cells: HEK293 T-REx (tetracycline-regulated, Invitrogen); cell line from Palatin Technologies with license from the University of Michigan
Protocol: A competitive inhibition binding assay was performed using membrane homogenates prepared from HEK-293 cells that express recombinant hMC4-R, hMC3-R, or hMC5-R, and from B-16 mouse melanoma cells (containing endogenous MC1-R). In some instances, HEK-293 cells that express recombinant hMC1-R were employed. In the examples that follow, all MC3-R, MC4-R and MC5-R values are for human recombinant receptors. […] After incubation for 60 minutes at 37° C., the assay mixture was filtered and the membranes washed three times with ice-cold buffer. Filters were dried and counted in a gamma counter for bound radioactivity. […] Maximal specific binding (100%) was defined as the difference in radioactivity (cpm) bound to cell membranes in the absence and presence of 1 μM NDP-α-MSH. […] Ki values for test peptides of the present invention were determined using Graph-Pad Prism® curve-fitting software.
Alternatively, a competitive inhibition binding assay was performed employing Eu-NDP-α-MSH (PerkinElmer Life Sciences catalog No. AD0225) with determination by time-resolved fluorometry (TRF) of the lanthanide chelate. […] After incubation for 90 minutes at 37° C., the reaction was stopped by filtration over AcroWell 96-well filter plates (Pall Life Sciences). The filter plates were washed 4 times with 200 μL of ice-cold phosphate-buffered saline. DELFIA Enhancement solution (PerkinElmer Life Sciences) was added to each well. […] Each assay was conducted in duplicate and mean values were utilized. Ki values were determined by curve-fitting with Graph-Pad Prism® software using a one-site fixed-slope competition binding model.

human MC4-R [2] = biological target: T1, human MC4-R; assay: cAMP functional assay in HEK-293 T-REx cells expressing human MC4-R, induced with doxycycline 0.1 ng/mL (low density); type: cell-based; conditions: averages of all comparable assays
Source text: A HEK293 cell line transfected with human MC4-R (from Palatin Technologies, US, with license from the University of Michigan) was used. The human MC4-R was introduced to HEK293 by using the T-REx™ System, Invitrogen. The T-REx™ System employs a tetracycline-regulated mammalian expression system that uses regulatory elements from the E. coli Tn10-encoded tetracycline (Tet) resistance operon. By use of the T-REx™ System, expression of the gene of interest, the human MC4-R gene, is repressed in the absence of tetracycline or doxycycline and induced in the presence of tetracycline or doxycycline (see T-REx™ System Manual, published by Invitrogen).
Cells were then counted and volume was adjusted to 5×10^4 cells per 200 μL.
The cells were then dispensed into 96-well plates (BD 353916) in 198 μL (about 5×10^4) cells/well and incubated for 10 minutes at 37° C. […]
Agonist stimulation of the MC4-R activates adenylate cyclase, which is an enzyme that catalyses the formation 3′,5′-cyclic adenosine monophosphate (cAMP) from adenosine triphosphate (ATP). […] Fluoresence ratios were then calculated as described in the CisBio HTRF kit, with GraphPad Prism software used to plot the change in fluorescence percent values versus cAMP concentration using the variable slope dose response curve and, based on calculated cAMP concentrations, to determine EC50 and Emax values. […]

[3] = human MC4-R, averages of all comparable assays, read-out: Ki

Compound	Ki (human MC4-R [1]; [3]) [nM]	EC50 (human MC4-R [2]) [nM]	Ki (human MC4-R [1]) [nM]
CC(=O)N[C@@H](CCCNC(=N)N)C(=O)N[C@H]1CCC(=O)NCCC[C@@H](C(N)=O)NC(=O)[C@H](Cc2c[nH]c3ccccc23)NC(=O)[C@H](CCCNC(=N)N)NC(=O)[C@@H](Cc2ccccc2)NC(=O)[C@H](CCCNC(=N)N)NC1=O [No. 10, Ac-Arg-cyclo(Glu-Arg-D-Phe-Arg-Trp-Orn)-NH2]	4	0.7	
CC(=O)N[C@@H](CCCNC(=N)N)C(=O)N[C@H]1CCC(=O)NCCC[C@@H](C(N)=O)NC(=O)[C@H](Cc2c[nH]c3ccccc23)NC(=O)[C@H](CCCNC(=N)N)NC(=O)[C@@H](Cc2ccccc2)NC(=O)[C@H](CCCNC(N)=O)NC1=O [No. 15, Ac-Arg-cyclo(Glu-Cit-D-Phe-Arg-Trp-Orn)-NH2]		2	6
CC(=O)N[C@@H](CCCNC(=N)N)C(=O)N[C@H]1CC(=O)NCCCC[C@@H](C(N)=O)NC(=O)[C@H](Cc2c[nH]c3ccccc23)NC(=O)[C@H](CCCNC(=N)N)NC(=O)[C@@H](Cc2ccccc2)NC(=O)[C@H](Cc2c[nH]cn2)NC1=O [reference compound]	2		
